In patent US11760889B2, “Unsaturated fatty alcohol derivatives from natural oil metathesis” (priority 2012, dated 2023):

What was measured:
[1] = Water-soluble herbicide formulation testing (standard dilution test, emulsion stability); assay type: physicochemical; set-up: key: D = dispersable; S = soluble; I = insoluble
Procedure: Surfactant candidates for water soluble herbicide applications are examined as a replacement for the anionic, nonionic, or anionic/nonionic blend portion and compared to a known industry adjuvant standard for use in paraquat, a water soluble herbicide concentrate formulation. A standard dilution test is conducted whereby the concentrates are diluted in water to determine if solubility is complete.
The cylinder is stoppered and inverted ten times. Solubility is recorded as complete or incomplete. Cylinders are allowed to stand and the amount (in mL) and type of separation are recorded after 30 min., 1 h, 2 h, and 24 h. Results of the solubility testing appear in Table 3 below.
An eight to ten mole alkyl phenol ethoxylate surfactant (0.7 g) is added and vigorously mixed for 30 s. Test sample (0.7 g) is added and mixing resumes for 30 s.
Test sample (0.7 g) is added and vigorously mixed for 30 s. Sodium linear alkylbenzene sulfonate (“NaLAS,” 0.7 g) is added and mixing resumes for 30 s.

[2] = Solubility evaluation: enhanced oil recovery (EOR); assay type: physicochemical; conditions: for Comments (appearance): 1 wt. % in 1% sodium chloride brine
Procedure: Samples are prepared in a 10% stock solution and evaluated at 1 wt. % with a brine concentration of 1% sodium chloride. Replicate experiments are performed at each temperature with each sample.

Row | Soluble? [2] | Comments (appearance) ([2]; 20.7 ° C.) | Comments (appearance) ([2]; 51.5 ° C.) | Comments (appearance) ([2]; 56.1 ° C.) | Substance | sol (solubility on dilution) [1] | Overall performance (EOR solubility) [2]
1 |  |  |  |  | 15 Mole Ethoxylated C10 Alcohol, Sodium Sulfate [A10-18] | S | 
2 | yes | clear, colorless | clear, colorless | clear, colorless | 3 Mole Ethoxylated C10 Alcohol, Ammonium Sulfate [A10-8] |  | Overall performance of A10-8: Equal to control
